# Literature values in patent US9125835B2, “Synergistic combinations to reduce particle dose for targeted treatment of cancer and its metastases” (priority 2010, dated 2015).
# Conditions: in vivo, iv; cited from earlier work
substance,measurement,value
"MAA: human serum albumin macroaggregates, approved pulmonary perfusion diagnostic agents",entrapped after a single injection,> 90%
